Drawing on patent publication US20240108738A1, “BICYCLIC PEPTIDE LIGANDS SPECIFIC FOR NK CELLS” (Bicycle Tx Limited, priority 2021, published 2024), this text covers IC50 for one compound.

The target of this assay is T1, CD16a/FCgRIIIa (F158 variant) (Homo sapiens, UniProt P08637).
T1 construct: host or cells: HEK293
Briefly: CD16a/FCgRIIIa HTRF assay (IgG competition on HEK293 cells). Format: binding. On the technique in general: Time-resolved FRET reads energy transfer from a long-lived donor to a nearby acceptor.

Each structure is given as a SMILES string.

The IC50 is the concentration that gives 50% inhibition. `CCCC[C@H](N)C(=O)N[C@H]1CSCc2nc3nc(n2)CSC[C@H](NC(=O)[C@@H]2CCCN2C(=O)[C@H](CCC(=O)O)NC(=O)[C@H](CO)NC(=O)[C@H](CCc2ccccc2)NC(=O)[C@H](Cc2c[nH]cn2)NC(=O)[C@H](Cc2c[nH]c4ccccc24)NC(=O)[C@H](CCCNC(=N)N)NC1=O)C(=O)NCC(=O)N[C@@H](C)C(=O)N[C@@H](Cc1c[nH]c2ccccc12)C(=O)N[C@H](C(=O)N[C@@H](C)C(N)=O)CSC3` [BCY21695, [Nle]-(SEQ ID NO: 230)-A] had an IC50 of 100 nM.
